Compound activity deposited in PubChem BioAssay by National Center for Advancing Translational Sciences (NCATS).
DT40 TDP1 CPT: growth inhibition of DT40 Tdp1-/-;hTDP1 cells with camptothecin (screen for TDP1 inhibitors) | Potency, µM (top dose mostly 46.2 µM), hits mostly inhibitors | 420,000 tested, 12% active | AID 686979 | chicken DT40 Tdp1-/-;hTDP1 cells + 20 nM CPT, ATP luminescence, 48 h; note: nearly all actives have a fitted effect of over 55% in size
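Chicken DT40 Tdp1-/- cells complemented with human TDP1, 400 cells/well, exposed to compounds plus 20 nM camptothecin for at least 48 h at 37 C; viability read as ATP content by CellTiter-Glo luminescence.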
miR-21 FLuc: raises the signal of a miR-21 reporter | AID 2288 | 340,000 tested, under 10 active | Potency, µM (series often up to 38.3 µM) | HeLa miR-21 FLuc reporter, luciferase, 48 h; active = well fitted rising curve with a large enough effect; inconclusive = small, poorly fitted or top-dose-only effect; inactive = no such curve, though single readings can be large or run the other way;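 further: miR-21 action dims this reporter so a rising signal means less miR-21 action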
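HeLa cells endogenously expressing miR-21, stably carrying CMV-driven firefly luciferase with a downstream miR-21 binding site, 2000 cells/well. Titrations up to approximately 40 uM, 48 hours; luciferase luminescence read.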
uPA surface inh: cell surface uPA generation inhibition; cell surface uPA generation assay, qHTS; Potency, µM (doses to about 38.3 µM), actives largely listed as inhibitors; 330,000 tested, 0.31% active; AID 540303; active = well fitted inhibition curve with a large enough effect; inconclusive = small, poorly fitted or top-dose-only effect; inactive = no such curve, though single readings can be large or run the other way; tested in mouse RAW 264.7 cells; note: nearly all actives have a fitted effect of over 55% in size
TDP1 inh: blocks human tyrosyl-DNA phosphodiesterase 1; recombinant TDP1, AlphaScreen DNA substrate cleavage; Potency, µM (series often up to 130 µM), actives largely listed as inhibitors; 350,000 tested, 0.28% active; AID 485290; note: nearly all actives have a fitted effect of over 40% in size
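Recombinant E. coli-expressed Tdp1 (1 nM) preincubated with compound 15 min at RT, then 5'-biotin/3'-phosphotyrosine-FITC DNA substrate (15 nM) added for 5 min. AlphaScreen beads (10 ug/ml) added, 10 min RT; tyrosine-FITC cleavage read as signal loss.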
DT40 TDP1 no CPT: qHTS for Inhibitors of human tyrosyl-DNA phosphodiesterase 1 (TDP1): qHTS in cells in absence of CPT; 420,000 tested, 15% active; DT40 Tdp1-/- hTDP1 cells, no CPT, ATP luminescence, 48 h; AID 686978, 2013; Potency, µM (highest dose often 46.2 µM), most hits filed as inhibitors; note: nearly all actives have a fitted effect of over 55% in size
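Chicken DT40 Tdp1-/- cells complemented with human TDP1, screened without camptothecin (DMSO vehicle only), 400 cells/well. Compounds pin-transferred, cells incubated at 37 °C for at least 48 hr. Growth read as ATP-dependent luminescence (CellTiter-Glo, 30 min at RT).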
Numbers stand for hits; – = inactive; ? = inconclusive; · = no result. In the library only some 16% were active in any assay of this set; here they are far more common. Unless noted, calls come from the whole dose curve; as a rule, active = well fitted curve in the direction sought with a large enough effect; inconclusive = small, poorly fitted or top-dose-only effect, or another doubt; inactive = no such curve, though single readings can be large; an effect the other way counts as inactive or inconclusive.

SMILES	DT40 TDP1 CPT	miR-21 FLuc	uPA surface inh	TDP1 inh	DT40 TDP1 no CPT
Cc1cccc2sc(N(CCCN(C)C)C(=O)CN3C(=O)c4ccccc4C3=O)nc12	?	–	–	–	?
Cc1cccc2sc(N(CCCN(C)C)C(=O)CCc3ccccc3)nc12	25.9µM	?	–	–	?
CN(C)CCCN(C(=O)CCc1ccccc1)c1nc2ccc(F)cc2s1	–	–	–	–	16.4µM
CN(C)CCCN(C(=O)c1cc(-c2cccs2)nc2ccccc12)c1nc2ccc(F)cc2s1	23.1µM	?	–	–	13µM
COc1ccc2sc(N(Cc3cccnc3)C(=O)CCc3ccccc3)nc2c1	?	–	·	–	?
CN(C)CCN(C(=O)c1cc(Cl)sc1Cl)c1nc2ccc(F)cc2s1	–	–	–	–	–
CN(C)CCCN(C(=O)CCc1ccccc1)c1nc2ccc(Br)cc2s1	?	?	–	–	23.1µM
CN(C)CCN(C(=O)/C=C/c1cccs1)c1nc2ccc(F)cc2s1	20.6µM	–	–	–	18.4µM
OC1(CN2CCOCC2)C2CN3CCN(C2)CC1(c1ccccc1)C3 (centres undefined)	29.1µM	–	–	–	?
Clc1ccccc1N1CCN(c2ncnc3c2c(-c2ccccc2)cn3-c2ccccc2)CC1	?	–	·	–	20.6µM
COc1ccccc1N1CCN(c2ncnc3c2c(-c2ccccc2)cn3-c2cccc(Cl)c2)CC1	?	–	·	–	?
CCN(CC)C(=O)C1CCCN(c2ncnc3c2c(-c2ccccc2)cn3-c2cccc(C)c2)C1 (centres undefined)	14.6µM	–	·	–	?
FC(F)(F)c1cccc(-n2cc(-c3ccccc3)c3c(N4CCCCC4)ncnc32)c1	?	–	·	–	23.1µM
NC(=O)C1CCN(c2ncnc3c2c(-c2ccccc2)cn3-c2ccccc2)CC1	?	–	–	–	?
CC(C)OCc1cc(CN2CCN(c3cccc(C(F)(F)F)c3)CC2)c(O)c2ncccc12	4.61µM	?	·	–	4.61µM
O=[N+]([O-])c1cc(CN2CCN(c3cccc(C(F)(F)F)c3)CC2)c2cccnc2c1O	0.92µM	?	–	–	1.46µM
CCOCc1cc(CN2CCN(c3cccc(C(F)(F)F)c3)CC2)c(O)c2ncccc12	6.51µM	–	·	–	6.51µM
O=[N+]([O-])c1cc(CN2CCCC2)c2cccnc2c1O	–	–	–	3.55µM	?
Cc1cc(Br)ccc1NC(=O)CN(C)C(=O)CCSc1ccc(F)cc1	?	·	–	·	?
CCOC(=O)c1cccc(NC(=O)c2ncoc2-c2ccco2)c1	–	–	·	–	–
COc1ccc(-c2ccc(C(=O)Nc3cccc(NS(C)(=O)=O)c3)c3occc23)c(C)c1	16.4µM	·	·	·	?
Cn1cc(-c2ccc(C(=O)Nc3cccc(Oc4ccccc4)c3)c3occc23)cn1	–	·	·	·	?
COc1cccc(C(=O)Nc2cccc(C(C)=O)c2)c1	–	–	–	–	–
COc1ccc(-c2coc3c(C(=O)Nc4cccnc4)cccc23)c(C)c1	18.4µM	·	·	·	8.2µM
COc1ccc(-c2coc3c(C(=O)Nc4cccc(C(C)=O)c4)cccc23)c(C)c1	18.4µM	·	·	·	20.6µM
SMILES	DT40 TDP1 CPT	miR-21 FLuc	uPA surface inh	TDP1 inh	DT40 TDP1 no CPT
COc1ccc(-c2ccc(C(=O)Nc3cccc(C(C)=O)c3)c3occc23)c(C)c1	11.6µM	·	·	·	8.2µM
Cc1nnc(NC(=O)CN2C(=O)NC3(CCCC3)C2=O)s1	–	·	–	·	–
COc1ccc(-c2ccc(C(=O)Nc3ccc(C(C)C)cc3)c3occc23)c(C)c1	?	·	·	·	16.4µM
COc1ccc(-c2ccc(C(=O)Nc3cccc(Oc4ccccc4)c3)c3occc23)c(C)c1	23.1µM	·	·	·	16.4µM
C[C@@H]1C(c2cccc(Cl)c2)=NN(c2ccc(Br)cc2)[C@H]1C(=O)N1CCOC1=O	?	·	–	–	?
CCS(=O)(=O)N1Cc2cc(C(=O)NCCOC)nc(-c3cccc(-c4ccncc4)c3)c2[C@@H]1CCO	–	·	·	·	–
CCC(=O)N1Cc2cc(C(=O)NCCOC)nc(-c3cccc(-c4ccc(C#N)cc4)c3)c2[C@H]1CCO	–	·	·	·	?
COc1ccccc1-c1cccc(-c2nc(C(=O)Nc3nccs3)cc3c2[C@@H](CCO)N(C(=O)CC2CC2)C3)c1	18.4µM	·	·	·	11.6µM
CCC(=O)N1Cc2cc(C(=O)Nc3nccs3)nc(-c3cccc(-c4ccccc4OC)c3)c2[C@@H]1CCO	4.61µM	·	·	·	4.61µM
COc1ccc2c(c1)CCc1c-2nc2ccccc2c1N1CCOCC1	1.64µM	–	–	·	2.06µM
CC1C(c2ccccc2)N(C)C(c2ccccc2)C(C)C1(O)C#Cc1ccccc1 (centres undefined)	9.2µM	–	–	–	10.3µM
Cc1ccccc1OCC(=O)NCCC(=O)O	–	–	–	–	–
COC(=O)c1sccc1S(=O)(=O)N(CC(=O)Nc1c(C)cccc1C)c1ccc(C)c(C)c1	16.4µM	–	·	–	–
COC(=O)c1sccc1S(=O)(=O)N(CC(=O)NCc1ccc(C)cc1)c1ccc(C)cc1	23.1µM	–	·	–	?
COC(=O)c1sccc1S(=O)(=O)N(CC(=O)NCc1ccc(F)cc1)c1ccc(Cl)cc1	?	–	·	–	?
CC1CC(C)CN(CC(=O)Nc2cc(S(=O)(=O)N3CCOCC3)ccc2N2CCCC2)C1 (centres undefined)	?	·	–	–	?
Cc1ccc2ncnc(Oc3ncccc3[N+](=O)[O-])c2c1	5.8µM	–	–	–	6.51µM
O=[N+]([O-])c1cccnc1Oc1ccc(OCc2ccccc2)cc1	–	–	–	·	–
CCn1cc(C(=O)NC2CC(C)(C)Cc3c2cnn3-c2cccc(F)c2)cn1 (centres undefined)	16.4µM	–	–	–	20.6µM
CCCN(Cc1nc2cc(Cl)ccc2c(=O)[nH]1)C(=O)c1ccc(S(=O)(=O)N2CCCC2)cc1	?	·	–	–	20.6µM
O=C(Cc1ccccc1)Nc1nnc(-c2ccccc2)o1	?	–	–	·	?
COc1ccccc1N1CCN(C(=O)C2CCCN(S(=O)(=O)c3ccc4c(c3)oc(=O)n4C)C2)CC1 (centres undefined)	25.9µM	–	–	–	8.2µM
COc1ccccc1N1CCN(C(=O)C2CCN(S(=O)(=O)c3ccccc3F)CC2)CC1	?	·	–	–	23.1µM
COc1ccc(C)cc1S(=O)(=O)N1CCCC(C(=O)N2CCOCC2)C1 (centres undefined)	–	–	–	–	–
COc1ccc(N2CCN(C(=O)C3CCCN(S(=O)(=O)c4ccc5c(c4)oc(=O)n5C)C3)CC2)cc1 (centres undefined)	11.6µM	–	–	–	10.3µM
COc1ccc(C)cc1S(=O)(=O)N1CCCC(C(=O)N2CCN(c3ccccc3F)CC2)C1 (centres undefined)	?	–	–	–	23.1µM
